Source: patent publication US9725465B2, “Biaryl acetamide compounds and methods of use thereof” (Ambit Biosciences Corporation, priority 2013, dated 2017)

Tests used:
FLT3-ITD-F691L = FLT3-ITD-F691L (Homo sapiens (Human), UniProt P36888, F691L/INS600HVDFREYEYD); test: pFLT3 MSD assay, Ba/F3 FLT3-ITD-F691L; assay type: cell-based; details: Ba/F3 FLT3-ITD-F691L cells, 2 hours, read-out: BaF3-FLT3-ITD-F691L pFlt3 IC50
FLT3-ITD-D835V = FLT3-ITD-D835V (Homo sapiens (Human), UniProt P36888, D835V/INS600HVDFREYEYD); test: pFLT3 MSD assay, Ba/F3 FLT3-ITD-D835V; assay type: cell-based; details: Ba/F3 FLT3-ITD-D835V cells, 2 hours, read-out: BaF3-FLT3-ITD-D835V pFlt3 IC50
[1] = test system: Ba/F3 cells expressing FLT3-ITD
[2] = test system: Ba/F3 cells expressing FLT3-ITD-D835V

| IC50 (FLT3-ITD-F691L) [nM] | IC50 (FLT3-ITD-D835V) [nM] | IC50 [1] [nM] | IC50 [2] [nM] | Compound |
| --- | --- | --- | --- | --- |
| 20 to 50 | 20 to 50 | < 10 | 10 to 20 | COc1cc2nc(-c3ccc(CC(=O)Nc4cc(C5(C(F)(F)F)CC5)on4)c(F)c3)cnc2cc1OC1CNC1 [Example 89, 2-(4-(6-(azetidin-3-yloxy)-7-methoxyquinoxalin-2-yl)-2-fluorophenyl)-N-(5-(1-(trifluoromethyl)cyclopropyl)isoxazol-3-yl)acetamide] |
| 10 to 20 | 10 to 20 | < 10 | < 10 | CCN1CC(Oc2cc3ncc(-c4ccc(CC(=O)Nc5cc(C6(C(F)(F)F)CC6)on5)c(F)c4)nc3cc2OC)C1 [Example 142, 2-[4-[6-(1-ethylazetidin-3-yl)oxy-7-methoxy-quinoxalin-2-yl]-2-fluoro-phenyl]-N-[5-[1-(trifluoro-methyl)cyclopropyl]isoxazol-3-yl]acetamide] |
| < 10 | < 10 | < 10 | < 10 | COc1cc2nc(-c3ccc(CC(=O)Nc4cc(C5(C(F)(F)F)CC5)on4)c(F)c3)cnc2cc1OCCN1CCCC1 [Example 134, 2-[2-fluoro-4-[7-methoxy-6-(2-pyrrolidin-1-ylethoxy)quinoxalin-2-yl]phenyl]-N-[5-[1-(trifluoromethyl)cyclo-propyl]isoxazol-3-yl]acetamide] |
| < 10 | < 10 | < 10 | < 10 | CC(C)(C)c1cc(NC(=O)Cc2ccc(-c3cnc4[nH]nc(-n5nccn5)c4c3)cc2)no1 [Example 101, N-(5-tert-butylisoxazol-3-yl)-2-[4-[3-(triazol-2-yl)-1H-pyrazolo[3,4-b]pyridin-5-yl]phenyl]acetamide] |
| < 10 | < 10 | < 10 | < 10 | COc1cc2nc(-c3ccc(CC(=O)Nc4cc(C5(C(F)(F)F)CC5)on4)c(F)c3)cnc2cc1OCCN [Example 167, 2-[4-[6-(2-aminoethoxy)-7-methoxy-quinoxalin-2-yl]-2-fluoro-phenyl]-N-[5-[1-(trifluoromethyl)cyclo-propyl]isoxazol-3-yl]acetamide] |
| < 10 | < 10 | < 10 | < 10 | COc1cc2ncc(-c3ccc(CC(=O)Nc4cc(C5(C(F)(F)F)CC5)on4)c(F)c3)nc2cc1OCCO [Example 80, 2-(2-fluoro-4-(7-(2-hydroxyethoxy)-6-methoxyquinoxalin-2-yl)phenyl)-N-(5-(1-(trifluoromethyl)cyclopropyl)isoxazol-3-yl)acetamide] |
| < 10 | < 10 | < 10 | 10 to 20 | CN1CCN(C(=O)c2cc3cc(-c4ccc(CC(=O)Nc5cc(C(C)(C)C)on5)cc4)cnc3[nH]2)CC1 [Example 99, N-(5-tert-butylisoxazol-3-yl)-2-[4-[2-(4-methylpiperazine-1-carbonyl)-1H-pyrrolo[2,3-b]pyridin-5-yl]phenyl]acetamide] |
| 20 to 50 | 20 to 50 | < 10 | > 50 | CN(C)CCNC(=O)c1n[nH]c2ncc(-c3ccc(CC(=O)Nc4cc(C(C)(C)C)on4)cc3)cc12 [Example 100, 5-[4-[2-[(5-tert-butylisoxazol-3-yl)amino]-2-oxo-ethyl]phenyl]-N-[2-(dimethylamino)ethyl]-1H-pyrazolo[3,4-b]pyridine-3-carboxamide] |
| < 10 | < 10 | < 10 | < 10 | CC(C)(C)c1cc(NC(=O)Cc2ccc(-c3cnc4[nH]cc(C5(O)COC5)c4c3)cc2)no1 [Example 97, N-(5-tert-butylisoxazol-3-yl)-2-[4-[3-(3-hydroxyoxetan-3-yl)-1H-pyrrolo[2,3-b]pyridin-5-yl]phenyl]acetamide] |
| < 10 | < 10 | < 10 | < 10 | CN(C)CCCN(C)C(=O)c1cc2cc(-c3ccc(CC(=O)Nc4cc(C(C)(C)C)on4)cc3)cnc2[nH]1 [Example 67, 5-(4-(2-((5-(tert-butyl)isoxazol-3-yl)amino)-2-oxoethyl)phenyl)-N-(3-(dimethylamino)propyl)-N-methyl-1H-pyrrolo[2,3-b]pyridine-2-carboxamide] |
| 20 to 50 | 10 to 20 | < 10 | < 10 | CCN1CC(Oc2cc3ncc(-c4ccc(CC(=O)Nc5cc(C(C)(C)C(F)(F)F)on5)c(F)c4)nc3cc2OC)C1 [Example 149, 2-[4-[6-(1-ethylazetidin-3-yl)oxy-7-methoxy-quinoxalin-2-yl]-2-fluoro-phenyl]-N-[5-(2,2,2-trifluoro-1,1-dimethyl-ethyl)isoxazol-3-yl]acetamide] |
| < 10 | < 10 | < 10 | < 10 | COc1cc2ncc(-c3ccc(CC(=O)Nc4cc(C(C)(C)C(F)(F)F)on4)c(F)c3)nc2cc1OCCO [Example 170, 2-[2-fluoro-4-[7-(2-hydroxyethoxy)-6-methoxy-quinoxalin-2-yl]phenyl]-N-[5-(2,2,2-trifluoro-1,1-dimethyl-ethyl)isoxazol-3-yl]acetamide] |
